# According to paper PMC9005681, “Use of AD Informer Set compounds to explore validity of novel targets in Alzheimer's disease pathology” (Alzheimer's & Dementia : Translational Research & Clinical …, 2022):
# Amino acid sequences for entries named in this document (tags omitted).
# UniProt P35367, whole entry: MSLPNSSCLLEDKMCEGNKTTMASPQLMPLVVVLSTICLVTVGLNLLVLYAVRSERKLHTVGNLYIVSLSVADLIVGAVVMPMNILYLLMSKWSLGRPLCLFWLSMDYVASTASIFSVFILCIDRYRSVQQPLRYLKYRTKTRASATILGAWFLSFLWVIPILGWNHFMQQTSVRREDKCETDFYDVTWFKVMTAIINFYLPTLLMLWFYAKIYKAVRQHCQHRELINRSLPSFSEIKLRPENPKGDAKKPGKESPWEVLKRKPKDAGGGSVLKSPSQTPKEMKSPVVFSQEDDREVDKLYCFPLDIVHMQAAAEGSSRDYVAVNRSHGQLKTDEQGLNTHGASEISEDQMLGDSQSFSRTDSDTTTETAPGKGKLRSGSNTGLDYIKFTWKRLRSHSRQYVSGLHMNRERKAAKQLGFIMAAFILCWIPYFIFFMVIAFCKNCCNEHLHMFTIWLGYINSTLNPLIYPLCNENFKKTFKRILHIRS
# Experiments:
# SYK = settings: published affinity; ref PubMed 24779514, Probe Miner, Chemical probes portal; cited from earlier work
# EPHX2 = tested on: EPHX2; set-up: method as in column References for potency and dosing (the 5th table c13); settings: published affinity; References for potency and dosing; cited from earlier work
# [1] = target: T1, cloned human or rodent CNS receptors, channels, and transporters (PDSP panel) (Homo sapiens, UniProt P35367); assay: PDSP GPCR panel primary binding assays at 10 μM; settings: Receptor H1, primary assay
# T1 construct: expressed in transfected cells
# Procedure: GPCR panel: Screening against the receptors within the PDSP panel offers an assessment of off-target pharmacological activity at cloned human or rodent CNS receptors, channels, and transporters that could confound CNS-related phenotypes. A total of 46–47 primary binding assays were run in quadruplicate on these compounds at 10 μM, with follow-up secondary binding assays in 11-point dose-response in triplicate for select compounds versus select receptors. Secondary binding assays were executed for all receptors where test compound displaced an average of >50% of radio-labeled standard ligand. As an exception, no secondary assays were carried out for H3, PBR, or GABAA. […]
# [2] = tested on: phospho-Tau (pTau, Thr231) and total Tau; assay: p-tau and t-tau in iPSC-derived neuron lysates, multiplexed ELISA; type: cell-based, human; settings: 48 hours, both doses (0.1, 1 μM)
# Procedure: Measurements of phospho-Tau (pTau, Thr231) and total Tau peptides were measured from neuronal lysates, also using a multiplexed ELISA assay. Using this assay, we measured the phospho:total tau ratio for each condition compared to vehicle (DMSO) treatment as well as the individual changes in phospho and total Tau peptides. Finally, all neuronal samples were examined morphologically for evidence of cytotoxicity.
structure (smiles),measurement,setting,value
"Cl.NC(=O)c1cnc(N[C@@H]2CCCC[C@@H]2N)nc1Nc1cccc(-n2nccn2)c1 [UNC10302682A, P505-15 (PRT06207 HCl)]","Reported on-target biochemical potency, SYK",SYK,2.1 nM
"CC(=O)N1CCC(NC(=O)NC23CC4CC(CC(C4)C2)C3)CC1 [UNC10302683A, AR9281]","Reported on-target biochemical potency, EPHX2",EPHX2,15 nM
"c1cn2cc(-c3ccc4cn[nH]c4c3)nc(Nc3ccc(N4CCOCC4)cc3)c2n1 [UNC10302678A, Entospletinib (GS-9973)]",Inhibition 1,[1],100.46%
same,Inhibition 2,[1],89.3%
same,Inhibition 3,[1],77.51%
same,Inhibition 4,[1],57.87%
same,Mean %,[1]; mean of Inhibition 1-4,81.29%
same,p-tau:t-tau ratio,[2],no change
